Measured values published in article PMC5085761 (International Journal of Molecular Sciences, 2016).

Tested on: LLC-PK1 monolayers
Test: Apical-to-basal transport through LLC-PK1 monolayers
Format: in vitro ADME, pig
Conditions: 10 µM tracer, at 120 min
Method: The LLC-PK1 cell line was purchased from DS Pharma Biomedical (Osaka, Japan). Cells were maintained in Dulbecco’s modified Eagle’s medium (DMEM; Life Technologies Japan, Tokyo, Japan) supplemented with 10% (v/v) fetal bovine serum (American Type Culture Collection, Manassas, VA, USA) and antibiotics (100 U/mL penicillin and 100 μg/mL streptomycin (Life Technologies Japan)). Cells were cultured at 37 °C under an atmosphere containing 5% CO2 before the start of the experiments.
Cells were seeded at a density of 1.5 × 10^6 cells/0.25 mL on the membrane of cell culture inserts fitting 24-well plates (upper compartment, apical side; Becton Dickinson, Franklin Lakes, NJ, USA). Flat-bottom 24-well tissue culture plates (Becton Dickinson) containing 0.95 mL of culture medium per well were used as the basolateral side (bottom compartment).
LLC-PK1 monolayer formation was monitored by the measurement of TER using an EVOM-2 and Endohm24 (World Precision Instruments, Inc., Sarasota, FL, USA) according to the manufacturer’s protocol. […] [^3H]Mannitol transport was measured as described in Section 4.3 for the validation of tight junction formation because mannitol passes through the cell monolayers via the paracellular route. […]
The apical-to-basal permeability was measured by sampling an aliquot of the buffer from the upper and bottom compartment at the indicated times. […]

In the case of L-[^14C]alanine, the “mean penetration amount (apical-to-basal transport)” value is reported as 85.5 pmol and the “mean residual radioactivity in the cells” value is reported as 15.2 pmol.
